Results reported in PubChem BioAssay AID651647 (Sanford-Burnham Center for Chemical Genomics, 2012).
The entries are a selection whose mix differs from that of the whole data set. Activity calls are given as the source filed them.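 The calls were made as follows: active = GFP/RFP ratio change of at least 30% with cell ATP level not reduced by more than half and red fluorescence within 50% of control; inactive = the rest, inconclusive results apart.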

Molecular target: Matrix metalloproteinase-14 (Homo sapiens) (UniProt P50281)
Assay: MT1-MMP activation inhibitors, cellular reporter – HT1080 RFP-PRO-GFP cells, GFP/RFP fluorescence, primary screen (AID 651647)
Settings: overnight, at 20 µM, stronger effect = higher value, percent of plate control window, DMSO zero
Procedure, shortened: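 Material: RFP-PRO-GFP reporter HT1080 cells. Dosing: single-point 20 µM compound, 1% DMSO. Controls: DMSO and RFP-L50D-GFP cell wells. Timing: cells overnight before dosing, compound overnight, 37 °C, 5% CO2. Measure: GFP/RFP fluorescence ratio.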

SMILES | GFP/RFP ratio change
N#CC1(Nc2ccccc2)CCN(CCc2ccccc2)CC1 | inactive: 0.805%
O=c1[nH]c2ccccc2n1C1CCN(C(c2ccccc2OC(F)(F)F)c2nnnn2C2CCCC2)CC1 (stereo not given) | inactive: 1.76%
CCN1CCC(Nc2ccc(Cl)cc2)CC1 | inactive: -1.24%
CSc1ccc(C(=O)NCC2(N3CCOCC3)CCCCC2)cc1 | inactive: 2.2%
O=C(NCC1(N2CCCCC2)CCCCC1)c1cccc([N+](=O)[O-])c1 | inactive: -0.174%
O=C(NCC1(N2CCCCC2)CCCCC1)c1ccc(OC(F)F)cc1 | inactive: 0.487%
CC(C)(C)n1nnnc1C(c1ccccc1OC(F)(F)F)N1CCC(n2c(=O)[nH]c3ccccc32)CC1 (stereo not given) | inactive: 0.539%
COc1cc(C(=O)NCC2(N3CCCCC3)CCCCC2)ccc1OC(F)F | inactive: 0.0548%
O=C(NCC1(N2CCOCC2)CCCCC1)c1cc(=O)[nH]c2ccccc12 | inactive: -2.76%
CCCCn1nnnc1C(c1cccc2ccccc12)N1CCC(n2c(=O)[nH]c3ccccc32)CC1 (stereo not given) | inactive: 6.41%
CN1CCN(CCOC(=O)C(O)(c2ccccc2)c2ccccc2)CC1 | inactive: -1.1%
COc1ccc(NC2CCN(C(=O)OC(C)(C)C)CC2)cc1 | inactive: 4.1%
CC(C)c1ccc(C(=O)NCC2(N3CCOCC3)CCCCC2)cc1 | inactive: -1.07%
O=C(NCC1(N2CCCCC2)CCCCC1)c1cccc(C(F)(F)F)c1 | inactive: 2.64%
CCC(c1nnnn1C(C)(C)C)N1CCC(n2c(=O)[nH]c3ccccc32)CC1 (stereo not given) | inactive: -2.13%
O=C(NCC1(N2CCOCC2)CCCCC1)c1cc(F)c(F)cc1Cl | inactive: 2.82%
COc1cc(OC)c(C(=O)NCC2(N(C)C)CCCCC2)cc1OC | inactive: 3.24%
CCCCn1nnnc1C(c1ccnc2ccccc12)N1CCC(n2c(=O)[nH]c3ccccc32)CC1 (stereo not given) | inactive: 1.96%
CC(C)c1ccc(NC2CCN(C(=O)OC(C)(C)C)CC2)cc1 | inactive: -6.52%
CCCCn1nnnc1C(c1ccccc1OC(F)(F)F)N1CCC(n2c(=O)[nH]c3ccccc32)CC1 (stereo not given) | inactive: -3.66%
CN(C)c1cccc(C(=O)NCC2(N3CCCCC3)CCCCC2)c1 | inactive: 0.933%
COc1ccc(CN(CCCl)CCCl)cc1Cl | inactive: 3.05%
COc1ccc(C(c2nnnn2C2CCCC2)N2CCC(n3c(=O)[nH]c4ccccc43)CC2)cc1 (stereo not given) | inactive: 4.2%
CCCOc1ccc(C(=O)NCC2(N(C)C)CCCCC2)cc1OC | inactive: 5.2%
Cc1ccc(C(=O)NCC2(N(C)C)CCCCC2)o1 | inactive: 3.72%
